In US20170276611A1, “CHALCOGENOPYRYLIUM DYES, COMPOSITIONS COMPRISING SAME, COMPOSITE NANOPARTICLES COMPRISING SAME, AND METHODS OF MAKING AND USING THE SAME” (The Research Foundation for The State University of New York, priority 2014, published 2017):

System: A431 tumor xenograft
Assay: In vivo Raman imaging of EGFR-targeted SERRS-nanoprobes
Conditions: A431 xenograft nude mice, 15 fmol/g per probe i.v., 18 hours, imaged in situ
Protocol: In vivo comparison of EGFR-targeted CP-3- or IR792-SERRS-nanoprobes. The ability of our SERRS-nanoprobe to delineate tumor tissue in vivo was assessed by utilizing CP dye 3 and IR792-based SERRS-nanoprobes functionalized with an epidermal growth factor receptor (EGFR)-targeting antibody. Equimolar amounts (15 fmol/g) of these two EGFR-targeted nanoprobes were injected intravenously into athymic nude mice which had been inoculated two weeks prior with the EGFR-overexpressing cell line A431 (1×10^6 cells). After 18 hours, the skin around the tumor was carefully peeled back and multiplexed Raman imaging the tumor site and surrounding tissue was performed (FIG. 20-21). A Raman map was generated and the signals from the multiplexed SERRS-Nanoprobes were deconvoluted by applying a direct classical least square algorithm (DCLS). The SERRS-signal from both nanoprobes was more intense for the tumor site than for the surrounding tissue, showing that the EGFR-targeted SERRS-nanoprobes had selectively localized at the tumor site. […] In addition, to validate EGFR targeting, we injected A431-tumor bearing mice with cetuximab (50 pmol/g) 3 hours prior to injection with the EGFR-targeted SERRS-nanoprobes.
In vivo comparison of EGFR-targeted CP-3- or IR792-SERRS-nanoprobes. Female athymic nude mice (n=5) were inoculated with the EGFR-overexpressing cell line A431 (1×10^6 cells). […]

## EGFR-targeted IR792-based SERRS-nanoprobe: IR792-based silica-gold SERRS-nanoprobe conjugated to EGFR-targeting antibody cetuximab through a 4000 Da PEG linker [reference compound]
  SERRS signal at the tumor: 7.313 cps/cm^2
